Series [1] in a line: Leaching study of treated wood test blocks into water (Example 2). Type of series: physicochemical. The conditions noted are these: average of three blocks, room temperature, after two days. The procedure: Wood test blocks prepared in accordance with Example 1, were subjected to a leaching study.
In this leaching study the following procedure was observed. • 1. The wood test block was placed in 500 ml plastic containers with screw caps. • 2. Water was added to the container to over flowing and the container was sealed. • 3. The containers were stored at room temperature. • 4.

Series [2] is described as follows: Leaching study of treated wood test blocks into water (Example 4). Type of series: physicochemical. The conditions noted are these: average of three blocks, room temperature, start Sep. 1, 2004. On the procedure:
In this example test blocks were prepared in accordance with the procedure of Example 1 and subjected a leaching study using the following procedure. • 1. The wood test blocks were placed in 500 ml plastic containers with screw caps. • 2. Water was added to the containers to over flowing and the container was sealed. • 3. The containers were stored at room temperature.
4. After two days the containers were opened and the leachate was analyzed for active quaternary compound (QAC) using a Hach DR/2400 Spectrophotometer.

From patent US20060128773A1, “Wood preservatives and waterproofing compositions and processes” (priority 2004, published 2006) come the findings set out here.

Take “alkyl dimethyl benzyl ammonium saccharinate [ADBAS]”: the “AVERAGE active quaternary compound in leachate, FINAL DATE May 8, 2004” value in series [1] is listed as 13.9 PPM QAC. In addition, the “AVERAGE active quaternary compound in leachate, FINAL DATE Sep. 5, 2004” value in series [2] was 59.33 PPM QAC. Further, the “amount water soluble in ethanol and water” value (approximately equal volumes of ethanol and water, approximately 150° F., by weight of the solution) is at most 5%. Further, the water solubility entry (water) is on record as “extremely water insoluble”.
